{
  "source": "patent US6444684B1",
  "about": "(priority 1993, dated 2002)",
  "tested_on": "human tumor cells in hollow fibers",
  "experiment": "NCI Hollow Fiber Assay for preliminary in vivo testing",
  "settings": "2 points per dose with 50% or greater reduction in viable cell mass",
  "data": [
    {"smiles": "COC(=O)c1nc(-c2ccc3c(n2)C(=O)C(N)=C(Cl)C3=O)c2[nH]c3ccccc3c2c1C", "note": "[Compound 58, 6-Chlorolavendamycin methyl ester]", "values": [
      {"measurement": "IP Score", "setting": "intraperitoneal fibers", "result": 10},
      {"measurement": "SC Score", "setting": "subcutaneous fibers", "result": 4}
    ]}
  ]
}
